# Measured values reported in article PMC3791872, “Ciprofloxacin is an inhibitor of the Mcm2-7 replicative helicase” (Bioscience Reports, 2013).
# By UniProt entry, the sequences of proteins in these tests, tags left out. Where a name states a change or a piece, a line headed by the entry shows the natural chain unless it says otherwise.
# UniProt P24279: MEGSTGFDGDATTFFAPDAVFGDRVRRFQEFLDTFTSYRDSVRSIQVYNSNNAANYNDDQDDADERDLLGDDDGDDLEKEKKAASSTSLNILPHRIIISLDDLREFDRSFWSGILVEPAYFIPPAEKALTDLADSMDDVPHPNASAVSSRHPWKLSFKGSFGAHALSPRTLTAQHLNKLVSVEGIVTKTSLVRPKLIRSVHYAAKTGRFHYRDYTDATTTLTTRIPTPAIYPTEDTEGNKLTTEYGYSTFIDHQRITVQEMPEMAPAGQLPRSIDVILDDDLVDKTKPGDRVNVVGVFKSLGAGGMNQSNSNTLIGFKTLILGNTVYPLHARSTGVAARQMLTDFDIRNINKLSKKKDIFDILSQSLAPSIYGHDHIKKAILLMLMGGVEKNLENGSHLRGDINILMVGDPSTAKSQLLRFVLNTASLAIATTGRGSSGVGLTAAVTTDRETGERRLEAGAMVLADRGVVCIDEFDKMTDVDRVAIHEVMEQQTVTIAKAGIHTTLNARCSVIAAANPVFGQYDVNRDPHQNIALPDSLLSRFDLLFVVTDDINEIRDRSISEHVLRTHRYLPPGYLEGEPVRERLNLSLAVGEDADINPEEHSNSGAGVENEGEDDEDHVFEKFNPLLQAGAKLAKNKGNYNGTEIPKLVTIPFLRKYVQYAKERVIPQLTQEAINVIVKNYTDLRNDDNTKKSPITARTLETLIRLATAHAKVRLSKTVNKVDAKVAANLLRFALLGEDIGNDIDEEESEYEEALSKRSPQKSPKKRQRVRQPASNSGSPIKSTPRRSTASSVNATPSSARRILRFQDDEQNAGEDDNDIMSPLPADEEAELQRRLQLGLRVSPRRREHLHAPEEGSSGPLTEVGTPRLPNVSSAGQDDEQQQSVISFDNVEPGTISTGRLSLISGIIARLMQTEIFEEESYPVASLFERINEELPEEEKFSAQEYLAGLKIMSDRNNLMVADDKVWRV
# UniProt P29469: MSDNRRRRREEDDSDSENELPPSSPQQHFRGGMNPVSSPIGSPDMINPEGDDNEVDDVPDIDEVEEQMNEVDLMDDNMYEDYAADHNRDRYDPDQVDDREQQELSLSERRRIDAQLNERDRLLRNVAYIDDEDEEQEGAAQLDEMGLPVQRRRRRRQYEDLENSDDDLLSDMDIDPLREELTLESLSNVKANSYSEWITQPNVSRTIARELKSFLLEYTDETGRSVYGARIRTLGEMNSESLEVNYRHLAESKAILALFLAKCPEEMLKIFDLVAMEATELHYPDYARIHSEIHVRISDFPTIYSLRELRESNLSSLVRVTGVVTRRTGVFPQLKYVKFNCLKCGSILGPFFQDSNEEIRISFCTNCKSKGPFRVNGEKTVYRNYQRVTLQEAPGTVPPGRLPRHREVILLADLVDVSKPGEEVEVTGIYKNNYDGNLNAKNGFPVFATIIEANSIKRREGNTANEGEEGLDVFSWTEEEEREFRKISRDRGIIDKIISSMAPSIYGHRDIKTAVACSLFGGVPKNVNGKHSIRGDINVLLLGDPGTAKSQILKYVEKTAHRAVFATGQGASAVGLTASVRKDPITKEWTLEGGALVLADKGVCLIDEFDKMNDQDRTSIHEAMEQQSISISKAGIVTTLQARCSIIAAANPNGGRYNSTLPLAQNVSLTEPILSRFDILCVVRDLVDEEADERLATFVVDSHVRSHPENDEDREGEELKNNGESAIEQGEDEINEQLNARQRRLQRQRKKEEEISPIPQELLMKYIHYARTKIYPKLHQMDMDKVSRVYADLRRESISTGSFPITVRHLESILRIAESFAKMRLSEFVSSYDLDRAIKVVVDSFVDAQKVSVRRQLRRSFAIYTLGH
# UniProt P29496: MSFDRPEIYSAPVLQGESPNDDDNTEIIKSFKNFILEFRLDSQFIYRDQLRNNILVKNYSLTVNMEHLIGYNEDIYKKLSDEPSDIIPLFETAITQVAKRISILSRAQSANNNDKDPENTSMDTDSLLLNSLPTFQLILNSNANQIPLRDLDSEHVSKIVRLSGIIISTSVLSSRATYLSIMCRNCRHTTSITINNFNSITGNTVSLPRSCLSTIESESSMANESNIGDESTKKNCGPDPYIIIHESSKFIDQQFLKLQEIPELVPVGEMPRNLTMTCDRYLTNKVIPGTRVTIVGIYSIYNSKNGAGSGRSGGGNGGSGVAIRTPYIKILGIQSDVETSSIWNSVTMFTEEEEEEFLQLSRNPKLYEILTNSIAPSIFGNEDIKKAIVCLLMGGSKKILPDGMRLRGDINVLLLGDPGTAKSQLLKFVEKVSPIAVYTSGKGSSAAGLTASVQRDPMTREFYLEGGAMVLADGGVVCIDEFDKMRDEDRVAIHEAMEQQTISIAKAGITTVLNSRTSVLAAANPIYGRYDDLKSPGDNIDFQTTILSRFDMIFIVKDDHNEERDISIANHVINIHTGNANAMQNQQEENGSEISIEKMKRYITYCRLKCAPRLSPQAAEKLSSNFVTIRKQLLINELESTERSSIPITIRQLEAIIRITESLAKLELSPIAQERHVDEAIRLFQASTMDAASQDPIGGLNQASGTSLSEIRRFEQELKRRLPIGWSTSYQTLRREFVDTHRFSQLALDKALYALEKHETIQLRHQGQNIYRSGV
# UniProt P30665: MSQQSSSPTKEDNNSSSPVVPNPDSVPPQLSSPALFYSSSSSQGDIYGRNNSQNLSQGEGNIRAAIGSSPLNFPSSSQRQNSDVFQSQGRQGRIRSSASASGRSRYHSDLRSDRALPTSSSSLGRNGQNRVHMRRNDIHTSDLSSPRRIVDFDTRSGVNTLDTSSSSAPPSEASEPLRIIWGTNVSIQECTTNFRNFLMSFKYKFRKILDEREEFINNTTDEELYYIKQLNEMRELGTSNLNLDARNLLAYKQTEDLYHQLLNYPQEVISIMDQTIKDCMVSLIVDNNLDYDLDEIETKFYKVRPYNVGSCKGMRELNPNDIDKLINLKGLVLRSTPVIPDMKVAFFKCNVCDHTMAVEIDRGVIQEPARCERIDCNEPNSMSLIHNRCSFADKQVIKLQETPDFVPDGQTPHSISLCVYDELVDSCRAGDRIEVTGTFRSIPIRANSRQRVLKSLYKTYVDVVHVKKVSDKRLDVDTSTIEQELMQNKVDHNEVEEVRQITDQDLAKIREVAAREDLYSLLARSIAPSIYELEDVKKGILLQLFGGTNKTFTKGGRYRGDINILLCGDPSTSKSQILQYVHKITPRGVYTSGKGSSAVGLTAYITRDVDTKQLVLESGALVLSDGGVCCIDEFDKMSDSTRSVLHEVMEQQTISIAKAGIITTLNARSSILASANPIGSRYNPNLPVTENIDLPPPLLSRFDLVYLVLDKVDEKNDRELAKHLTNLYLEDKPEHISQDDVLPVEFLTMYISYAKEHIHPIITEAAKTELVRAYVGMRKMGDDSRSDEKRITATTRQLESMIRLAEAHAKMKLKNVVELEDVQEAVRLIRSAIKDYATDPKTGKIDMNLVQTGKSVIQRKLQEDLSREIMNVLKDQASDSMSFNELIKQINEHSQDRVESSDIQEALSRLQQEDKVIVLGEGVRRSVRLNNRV
# UniProt P38132: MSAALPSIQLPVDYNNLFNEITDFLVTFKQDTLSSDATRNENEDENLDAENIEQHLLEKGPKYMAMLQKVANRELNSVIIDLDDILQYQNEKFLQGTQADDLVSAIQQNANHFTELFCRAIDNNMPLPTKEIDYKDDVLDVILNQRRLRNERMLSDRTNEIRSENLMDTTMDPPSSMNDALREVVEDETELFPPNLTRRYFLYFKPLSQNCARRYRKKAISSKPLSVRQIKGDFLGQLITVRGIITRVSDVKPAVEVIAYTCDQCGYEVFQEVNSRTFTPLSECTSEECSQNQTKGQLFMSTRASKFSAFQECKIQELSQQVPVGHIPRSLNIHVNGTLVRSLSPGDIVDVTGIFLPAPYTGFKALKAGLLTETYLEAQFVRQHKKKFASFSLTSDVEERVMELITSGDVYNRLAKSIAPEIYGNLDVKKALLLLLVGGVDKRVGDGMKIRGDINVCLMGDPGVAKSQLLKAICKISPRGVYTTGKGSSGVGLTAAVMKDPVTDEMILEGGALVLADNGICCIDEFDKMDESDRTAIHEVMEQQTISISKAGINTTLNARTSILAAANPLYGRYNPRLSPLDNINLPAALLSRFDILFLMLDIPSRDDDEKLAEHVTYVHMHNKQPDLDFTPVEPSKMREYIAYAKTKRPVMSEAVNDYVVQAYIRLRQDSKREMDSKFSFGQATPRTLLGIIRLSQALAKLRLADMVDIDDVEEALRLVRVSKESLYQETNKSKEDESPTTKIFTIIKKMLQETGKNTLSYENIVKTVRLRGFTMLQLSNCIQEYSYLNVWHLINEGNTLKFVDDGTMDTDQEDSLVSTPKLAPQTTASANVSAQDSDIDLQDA
# UniProt P53091: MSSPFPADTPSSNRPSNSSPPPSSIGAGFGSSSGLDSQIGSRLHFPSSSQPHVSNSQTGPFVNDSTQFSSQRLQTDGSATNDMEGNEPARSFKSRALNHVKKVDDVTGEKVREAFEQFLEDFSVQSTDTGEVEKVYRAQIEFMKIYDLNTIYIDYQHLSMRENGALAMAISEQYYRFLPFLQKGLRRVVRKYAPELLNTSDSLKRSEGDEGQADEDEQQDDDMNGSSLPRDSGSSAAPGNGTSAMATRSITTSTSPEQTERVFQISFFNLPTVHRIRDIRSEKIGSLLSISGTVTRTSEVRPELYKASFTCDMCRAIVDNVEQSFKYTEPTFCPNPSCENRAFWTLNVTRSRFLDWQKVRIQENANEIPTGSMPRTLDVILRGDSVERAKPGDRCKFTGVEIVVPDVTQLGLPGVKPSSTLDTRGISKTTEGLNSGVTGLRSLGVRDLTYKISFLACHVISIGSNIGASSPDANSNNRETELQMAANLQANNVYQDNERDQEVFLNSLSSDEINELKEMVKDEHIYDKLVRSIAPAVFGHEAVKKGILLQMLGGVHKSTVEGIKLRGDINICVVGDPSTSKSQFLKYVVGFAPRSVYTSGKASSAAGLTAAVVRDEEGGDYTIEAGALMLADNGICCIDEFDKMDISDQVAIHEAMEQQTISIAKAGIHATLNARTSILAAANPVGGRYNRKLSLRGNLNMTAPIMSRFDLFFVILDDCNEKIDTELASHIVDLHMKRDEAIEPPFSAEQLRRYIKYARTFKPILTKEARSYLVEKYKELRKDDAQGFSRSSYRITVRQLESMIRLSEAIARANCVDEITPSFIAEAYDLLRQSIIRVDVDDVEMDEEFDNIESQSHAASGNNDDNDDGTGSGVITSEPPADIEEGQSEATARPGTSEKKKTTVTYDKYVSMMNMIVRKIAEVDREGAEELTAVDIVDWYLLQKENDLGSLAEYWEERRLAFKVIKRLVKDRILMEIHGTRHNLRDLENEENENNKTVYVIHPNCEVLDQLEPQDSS
# Columns and labels:
# Mcm2-7 = Mcm2-7 (UniProt P24279+P29469+P29496+P30665+P38132+P53091); test: ssDNA double filter-binding assay, Mcm2-7; set-up: species or system Saccharomyces cerevisiae; settings: 1 mM compound, 150 nM helicase
# Mcm467 = Mcm467 (Saccharomyces cerevisiae, UniProt P30665+P38132+P53091); test: ssDNA double filter-binding assay, Mcm467; settings: 1 mM compound, 150 nM helicase
structure (smiles),measurement,setting,value
O=[N+]([O-])c1ccc(Cl)c2nonc12,effect on ssDNA binding of Mcm2-7,Mcm2-7,inhibit
same,effect on ssDNA binding of Mcm467,Mcm467,inhibit
